Data set [1] can be described thus: Stability in simulated intestinal fluid (SIF). It counts as in vitro ADME. The note with it: simulated intestinal fluid with pancreatin, pH 6.8, 37° C., matrix is 100 fold dilution of standard SIF concentration.
A short description of data set [2]: Stability in simulated gastric fluid (SGF). Type of data set: in vitro ADME. The following applies: simulated gastric fluid with porcine pepsin, pH 2, 37° C., 20 μM peptide. The method, then: SGF was prepared by adding 20 mg NaCl, 32 mg porcine pepsin (MP Biochemicals, catalog 02102599), and 70 μl HCl to 10 ml water (final pH=2). Aliquots of SGF (0.5 ml each) were pre-warmed at 37° C. To start the reaction, 1 μl of peptide stock solution (10 mM in DMSO) was added to 0.5 ml SGF and thoroughly mixed such that the final peptide concentration was 20 μM. The reactions were incubated at 37° C. with gentle shaking. At each time point (0, 15, 30, 60 min) 50 μl aliquots were removed and added to 200 ul acetonitrile containing 0.1% formic acid to quench the reaction.

Amino acid sequences for entries named in this document (tags omitted). Residues count along the entry.
UniProt Q5VWK5, 24-629 limits assumed: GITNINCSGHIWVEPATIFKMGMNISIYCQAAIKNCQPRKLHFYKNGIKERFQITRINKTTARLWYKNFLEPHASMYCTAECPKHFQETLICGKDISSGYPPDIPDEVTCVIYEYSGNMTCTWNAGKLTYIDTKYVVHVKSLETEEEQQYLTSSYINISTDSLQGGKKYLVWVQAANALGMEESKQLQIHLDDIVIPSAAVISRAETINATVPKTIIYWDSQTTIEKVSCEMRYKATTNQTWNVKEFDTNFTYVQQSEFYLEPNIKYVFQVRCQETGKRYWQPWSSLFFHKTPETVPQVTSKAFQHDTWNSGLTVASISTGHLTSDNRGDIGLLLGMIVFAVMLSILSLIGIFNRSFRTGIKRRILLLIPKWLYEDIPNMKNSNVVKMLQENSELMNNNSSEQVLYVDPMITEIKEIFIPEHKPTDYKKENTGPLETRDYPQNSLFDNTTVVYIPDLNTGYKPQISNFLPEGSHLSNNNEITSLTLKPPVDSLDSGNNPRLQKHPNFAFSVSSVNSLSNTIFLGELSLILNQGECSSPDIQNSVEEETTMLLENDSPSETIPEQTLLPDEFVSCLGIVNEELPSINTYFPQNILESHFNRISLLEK

Data set [3] has as its target IL-23R-expressing DB cells (Homo sapiens, UniProt Q5VWK5). In words: DB cells IL23R pSTAT3 cell assay (pStat3HTRF). It counts as cell-based. The following applies: DB cells stimulated with IL-23 0.5 nM, 30 minutes, phospho-STAT3 in cell lysates; read-out: pStat3 HTRF. From the text: Human ELISA indicates the IL23-IL23R competitive binding assay described below, Rat ELISA indicates the rat IL-23R competitive binding ELISA assay described below, and pStat3HTRF indicates the DB cells IL-23R pSTAT3 cell assay described below. The peptides depicted in Table E1 are cyclized via a disulfide bridge formed between two Pen residues in these peptides. The peptides depicted in Table E2 are cyclized via a thioether bond between the indicated amino acid residues. Table E2 provides an illustrative structure depicting thioether cyclization, which is indicated in the table by the term “cyclo,” with the cyclic region bracketed immediately following the term “cyclo.” For certain peptides, the residue Abu is present where indicated, whereas in other embodiments, e.g., those related to the non-cyclized form, the Abu may be referred to as a hSer(Cl) or homoSer residue. The petpides depicted in Table E3 are cyclized via a disulfide bridge formed between two Pen residues or a thioether bond between Abu and Cys.
IL-23 plays a central role in supporting and maintaining Th17 differentiation in vivo. […] Changes in phospho-STAT3 levels in the cell lysates were detected using the Cisbio HTRF pSTAT3 (Tyr705) Cellular Assay Kit (Cisbio #62AT3PEH), according to manufacturer's Two Plate Assay protocol. Where not shown, data was not yet determined.

Data set [4] is described as follows: Stability in human fecal homogenate. Type of data set: in vitro ADME. The following applies: 20% fecal homogenate (supernatant), pH 6.8, 20% human fecal homogenate, anaerobic, 37° C., read-out: t½: Human Feces anaerobic. On the procedure:
(§1) Centrifuged the homogenate at 2800×g for 15 min. The supernatant is taken out and used for incubations. […] The final test compound concentration was 20 μM.

Data set [5] in a line: Stability in cynomolgus monkey fecal homogenate. The following applies: 20% fecal homogenate (supernatant), pH 6.8, 20% cynomolgus monkey fecal homogenate, anaerobic, 37° C., read-out: t½: Monkey Feces anaerobic. It counts as in vitro ADME. On the procedure: as §1
Data set [6] can be described thus: Stability in rat plasma. Type of data set: in vitro ADME. The note with it: both sexes, SD rat plasma, EDTA, 37° C., read-out: t½: Rat Plasma EDTA.

Where only a bound is given, the exact number is not on record here.

Take `CC(=O)NCCCC[C@H](NC(=O)[C@](C)(CC(C)C)NC(=O)[C@H](Cc1ccc2ccccc2c1)NC(=O)[C@H](Cc1ccc(OCCN)cc1)NC(=O)[C@H]1NC(=O)[C@H](CCC(N)=O)NC(=O)[C@H](Cc2c[nH]c3c(C)cccc23)NC(=O)[C@H]([C@@H](C)O)NC(=O)[C@H](CC(N)=O)NC(=O)[C@@H](NC(C)=O)C(C)(C)SSC1(C)C)C(=O)N[C@@H](Cc1c[nH]cn1)C(=O)NCCC(N)=O` [compound 214]: the “SIF t½” value in data set [1] (20 μM) is 24 h. Further, in data set [2], the “SGF t½” value is 24 h.
For `CC(=O)NCCCC[C@H](NC(=O)[C@](C)(CCCCN)NC(=O)[C@H](Cc1ccc2ccccc2c1)NC(=O)[C@H](Cc1ccc(OCCN)cc1)NC(=O)[C@H]1NC(=O)[C@H](CCCCNC(=O)Cc2ccccc2)NC(=O)[C@H](Cc2c[nH]c3c(C)cccc23)NC(=O)[C@H]([C@@H](C)O)NC(=O)[C@H](CC(N)=O)NC(=O)[C@@H](NC(C)=O)C(C)(C)SSC1(C)C)C(=O)N[C@@H](CC(N)=O)C(=O)N[C@H](CC(C)C)C(N)=O` [compound 318], the IC50 in data set [3] was found to be 1.9 nM.
For `CC(=O)NCCCC[C@@H]1NC(=O)[C@H](Cc2c[nH]c3c(C)cccc23)NC(=O)[C@H]([C@@H](C)O)NC(=O)[C@H](CC(N)=O)NC(=O)[C@@H](NC(C)=O)C(C)(C)SSC(C)(C)[C@@H](C(=O)N[C@@H](Cc2ccc(OCCN)cc2)C(=O)N[C@@H](Cc2ccc3ccccc3c2)C(=O)N[C@@](C)(CCCCN)C(=O)N[C@@H](CCCCNC(=O)Cc2ccccc2)C(=O)N[C@@H](CC(N)=O)C(=O)N[C@H](CC(C)C)C(N)=O)NC1=O` [compound 359], the half-life at 20 μM in data set [4] was > 24 h; in data set [1] (read-out: SIF t½ (converted)) it was 11 h; in data set [5], > 24 h; in data set [6], > 24 h.
